# Test results from patent publication US8147838B2, “Peptide” (priority 2005, dated 2012).
# What was measured:
# Conditions in all cases: percent of positive control peptide binding; peptide at 1.11×10^−5M
# [1] = target: MHC class I allele A*0201 (A2) (Homo sapiens, UniProt P04439, D140Y/D185E/D98H/E176V/E277Q/G131W/G231S/I119V/I121R/I166T/I218V/L300P/L318F/N151K/N90K/P208A/P217A/Q86G/Q94H/R138H/R169H/T345S); experiment: iTopia peptide binding assay, A*0201
# Protocol: (§1) The 9 mers were tested for Peptide Binding, Off Rate and Affinity using iTopia Epitope Discovery System in accordance with the manufacturer's instructions. Briefly, 96 well microtitre plates coated with MHC molecules representing different MHC alleles are used to identify candidate peptides. […] Determinations are performed in duplicate using an ELISA plate reader and included allele specific positive controls.
# (§2) i) Peptide Binding—This assay measures the ability of individual peptides to bind to the MHC molecules under standardized optimal binding conditions. The assay is performed for all the test peptides across the selected MHC alleles. The test peptides identified as “binders” are characterized further in terms of affinity and dissociation experiments.
# (§3) Following a period of binding under optimal conditions, excess antibody is removed and a measurement of total fluorescence taken (D).
# (§4) The binding of the test peptides to the MHC molecules was performed at 1.11×10^−5M of peptide under optimal, standardised test conditions. A control peptide was run in parallel on the same plate and at the same concentration as the test peptides.
# (§5) The level of binding is expressed as a percent of positive control peptide binding for each allele.
# [2] = target: MHC class I allele A*0301 (A3) (Homo sapiens, UniProt P04439); experiment: iTopia peptide binding assay, A*0301
# Protocol: as §1, §2, §3, §4, §5
# [3] = target: MHC class I allele A*0101 (A1) (Homo sapiens, UniProt P04439, A114D/A174V/A182V/D101N/D185E/E176A/E190D/L180R/Q94H/R68K/S129P/T187R/V100A/V91M/W191G); experiment: iTopia peptide binding assay, A*0101
# Protocol: as §1, §2, §3, §4, §5
# [4] = target: MHC class I allele B*0702 (B7) (Homo sapiens, UniProt P01889); experiment: iTopia peptide binding assay, B*0702
# Protocol: as §1, §2, §3, §4, §5
structure (smiles),measurement,setting,value
CC(C)C[C@H](NC(=O)[C@H](CC(N)=O)NC(=O)[C@H](CC(C)C)NC(=O)[C@H](C)NC(=O)[C@H](C)NC(=O)[C@H](CC(C)C)NC(=O)[C@H](CCC(=O)O)NC(=O)[C@H](C)NC(=O)[C@@H](N)CC(C)C)C(=O)O [Peptide 59],"Peptide binding, MHC Class I Molecule A*0201",[1],63 % of control
same,"Peptide binding, MHC Class I Molecule A*0301",[2],3 % of control
same,"Peptide binding, MHC Class I Molecule A*0101",[3],15 % of control
same,"Peptide binding, MHC Class I Molecule B*0702",[4],16 % of control
